Yeast mating assay 1: variants of the scFv Ab-14

The target is the same throughout: PDVDLGDISGINAS, from the HR2 region of SARS-CoV-2 spike.

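Phage display of a naive human antibody library on the peptide gave the parent. The library (AAYL50) carries one to three amino acid substitutions per variant, with no insertions or deletions. The assay is AlphaSeq: two haploid yeast populations carry antibody and antigen on their surface. Pairs that bind mate more often; barcode pairs of the diploids are counted by sequencing. The ratio of observed to expected reads was calibrated, replicate by replicate, on BCL2-family standards whose Kd was known from biolayer interferometry. Each pool was mated in three replicate cultures.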

Parent scFv Ab-14: VH joined to VL by a 15-residue (Gly4Ser)3 linker. Changes lie in the light chain CDRs alone.
VH: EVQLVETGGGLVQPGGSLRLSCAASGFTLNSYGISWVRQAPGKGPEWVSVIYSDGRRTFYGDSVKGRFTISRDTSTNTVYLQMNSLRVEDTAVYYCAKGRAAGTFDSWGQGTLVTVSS
VL: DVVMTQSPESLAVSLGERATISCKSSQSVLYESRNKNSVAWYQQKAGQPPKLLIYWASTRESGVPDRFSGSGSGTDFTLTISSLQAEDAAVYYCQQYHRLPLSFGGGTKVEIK

The parent's light chain CDRs are KSSQSVLYESRNKNSVA, WASTRES, QQYHRLPLS; each variant's own CDRs replace them letter for letter.
Numbers give log10(Kd / nM), so 0 is 1 nM and 3 is 1 µM. Smaller is tighter.
"n.d." means that the variant was in the library but no mating with the target was seen in that replicate; the authors take this as a sign of poor binding, and no number exists.

CDR-L1,CDR-L2,CDR-L3,"log10 Kd, replicates",signal with controls
KISQSVLYESRRINSVA,WASTRES,QQYHRLPLS,0.23 / 0.56 / 0.42,2 of 9 (4.85)
KSSQLVLYESRNKKYVA,WASTRES,QQYHRLPLS,n.d. / n.d. / n.d.,0 of 9
KSSQSVLAESRNKNSVA,WASTRES,QQYHRLQLS,n.d. / n.d. / n.d.,0 of 9
KTSQSVLYESRNKQSIA,WASTRES,QQYHRLPLS,0.67 / 0.81 / 0.84,3 of 9 (4.73)
KSSQSVDYESRNKNSVA,WGSTREC,QQYHRLPLS,0.34 / 0.66 / 0.53,0 of 9
KSSQFVLYESRNKNSVA,WAWTQES,QQYHRLPLS,n.d. / n.d. / 3.10,2 of 9 (2.99)
KSSQSVLYESRNPNSVA,WASTRES,SQYHRHPLS,1.66 / 1.24 / 1.12,0 of 9
KSQQSVLYESRNKNSVA,WYSTRES,QQYCRLPLS,n.d. / n.d. / n.d.,0 of 9
KSYQSVLYESRNKNSVA,WASIRES,QQYHRLMLS,1.15 / 1.26 / 1.25,3 of 9 (4.50)
KSKQSVLFESRNKNSVA,WASTRES,QQYHRLDLS,3.60 / 3.79 / 3.38,1 of 9 (4.01)
KSSQSVLYESRNKNSVA,CSSTRES,QQYHRLPLS,2.62 / 2.42 / 3.06,0 of 9
KSSQSVLYESRNKNSVA,QAGTRES,QQEHRLPLS,0.60 / 0.78 / 0.79,1 of 9 (5.26)
KSSQSVLYESRNKNSVA,WASTRTS,RQYHRLPLS,4.04 / 3.92 / 5.01,6 of 9 (4.72)
KSSQSVMYESRNKNSVA,WASTRES,QQYHRVPNS,5.90 / n.d. / 5.04,5 of 9 (4.51)
KSPQSVLYESRNKNSVA,WAWTRES,AQYHRLPLS,n.d. / n.d. / n.d.,1 of 9 (3.78)
KSSQSVLPESRNKNSVA,WASTRES,FQYHQLPLS,1.31 / 1.31 / 1.38,0 of 9
KSSQSVLYESRNKNSVA,WASTTES,KQYHRLYLS,n.d. / 3.61 / n.d.,1 of 9 (3.66)
KYSQSPLYESRNKNSVA,WASTRES,QQYKRLPLS,0.73 / 0.96 / 0.70,1 of 9 (3.48)
KSCQSVLYESRCKNSVA,WASTRES,WQYHRLPLS,n.d. / n.d. / n.d.,3 of 9 (4.06)
KSSQSVLYESRNKNSGA,WASTRES,QQYHRLPLD,n.d. / 4.63 / n.d.,2 of 9 (4.92)
KSSQSVLYESKNKNSVA,CASTREE,QQYHRLPLS,1.89 / 2.02 / 2.00,2 of 9 (3.73)
PSSQSVLYESQNKNSVA,WASKRES,QQYHRLPLS,4.45 / n.d. / n.d.,1 of 9 (3.94)
KSSQSVLYEFRNKNSVA,WASTRES,QQNHRIPLS,n.d. / 3.42 / n.d.,0 of 9
KSSASVLYESRNKNSVA,WAVTRES,QQYHMLPLS,2.24 / 2.49 / 3.15,1 of 9 (4.76)
KSSMSVLYESRNKNSVI,WAETRES,QQYHRLPLS,n.d. / n.d. / n.d.,0 of 9
KSYQSMLYESRNKNSVK,WASTRES,QQYHRLPLS,4.26 / n.d. / 3.51,1 of 9 (4.17)
KSSVSVLYESRNKNSVA,WASTRES,QQYHRLPLS,0.82 / 0.82 / 0.85,2 of 9 (4.51)
KSSLSVDYESRNKNSSA,WASTRES,QQYHRLPLS,n.d. / 5.25 / n.d.,3 of 9 (4.56)
KSSQSVLYESNTKNSVA,WASTRES,QQFHRLPLS,1.31 / 1.42 / 1.47,0 of 9
KSSPSVLYETRNKNSVA,WASTRES,QQYHRLPLS,n.d. / n.d. / 5.96,1 of 9 (4.54)
ESSQSVLYESWNKNSVA,WASTRES,QQYHRLKLS,n.d. / n.d. / n.d.,0 of 9
KSSQWQLYESRNKNSVA,WASTRES,QQYHRRPLS,1.49 / 1.89 / 2.23,5 of 9 (4.54)
KSSQSVWYESRNKNSIA,WVSTRES,QQYHRLPLS,1.69 / 1.49 / 1.52,2 of 9 (4.16)
KSSQSVLYESRSKNGVA,WASTRES,QQYHRLALS,1.81 / 1.89 / 2.67,0 of 9

Picked from the list: the 5 lowest averages where every replicate gave a value.

CDR-L1	CDR-L2	CDR-L3	log10 Kd, replicates	signal with controls
KISQSVLYESRRINSVA	WASTRES	QQYHRLPLS	0.23 / 0.56 / 0.42	2 of 9 (4.85)
KSSQSVDYESRNKNSVA	WGSTREC	QQYHRLPLS	0.34 / 0.66 / 0.53	0 of 9
KSSQSVLYESRNKNSVA	QAGTRES	QQEHRLPLS	0.60 / 0.78 / 0.79	1 of 9 (5.26)
KTSQSVLYESRNKQSIA	WASTRES	QQYHRLPLS	0.67 / 0.81 / 0.84	3 of 9 (4.73)
KYSQSPLYESRNKNSVA	WASTRES	QQYKRLPLS	0.73 / 0.96 / 0.70	1 of 9 (3.48)

Nonspecific signal, from three strains lacking the peptide, appeared in 18% of pairings of library AAYL50, centred on 4.19 (5% of these signals below 2.99); values are not corrected for it. The control count says in how many pairings with the empty strains this scFv gave a signal, with their mean in brackets.
In this assay the parent's reference entry averaged 0.65; its copy inside this library read 1.68.

The measurements come from Engelhart et al. 2022 (doi:10.1038/s41597-022-01779-4) through the FLAb antibody collection.